# Source: ChEMBL document CHEMBL1126912 (J Med Chem, 1993)
# By UniProt entry, the sequences of proteins in these tests, tags left out. Where a name states a change or a piece, a line headed by the entry shows the natural chain unless it says otherwise.
# UniProt P08482: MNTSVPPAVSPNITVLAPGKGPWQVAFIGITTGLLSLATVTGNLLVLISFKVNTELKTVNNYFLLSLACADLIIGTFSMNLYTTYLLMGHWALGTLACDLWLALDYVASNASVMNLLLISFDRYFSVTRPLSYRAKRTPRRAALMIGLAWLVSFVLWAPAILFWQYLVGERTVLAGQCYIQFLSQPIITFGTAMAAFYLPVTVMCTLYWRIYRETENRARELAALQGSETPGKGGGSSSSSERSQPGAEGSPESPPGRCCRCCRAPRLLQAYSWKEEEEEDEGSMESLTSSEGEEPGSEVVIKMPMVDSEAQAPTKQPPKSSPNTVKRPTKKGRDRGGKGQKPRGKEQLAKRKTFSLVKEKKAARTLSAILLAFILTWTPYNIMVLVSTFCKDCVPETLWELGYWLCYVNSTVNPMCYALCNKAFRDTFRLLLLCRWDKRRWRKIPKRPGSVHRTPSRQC
# What was measured:
# [1] = target: Muscarinic acetylcholine receptor M1 (Rattus norvegicus, UniProt P08482); test: Affinity constant measured against M1 muscarinic receptor in rat cortex
# [2] = test system: Muscarinic acetylcholine receptors M2 & M3 (Cavia porcellus); test: Selectivity ratio between atrium (M2) and ileum (M3) was determined
Ki [1] [nM],Selectivity ratio [2],SMILES
37.2,,COc1ccccc1CNCCCCCCNCCCCCCCCNCCCCCCNCc1ccccc1OC [METHOCTRAMINE]
,174,CN(CCCCCCCCN(C)CCCCCCNCC(=O)N1c2ccccc2C(=O)Nc2cccnc21)CCCCCCNCC(=O)N1c2ccccc2C(=O)Nc2cccnc21
